Literature values as cited in paper PMC11856326, “Structure-activity studies of bispyridinium antinicotinics to select candidates to treat soman intoxication as part of a combined therapy” (2025).
Where two headings read alike, the source gives them in different places. Marks after values point to notes of the source that are not given here.

What was measured:
[1] = tested on: Human acetylcholinesterase (hAChE); details: read-out: hAChE IC50, cited from earlier work
[2] = tested on: mice; details: cited from earlier work; for LD50 i.m. mice: number in brackets = i.m.

Row | Structure (SMILES) | IC50 ([1]; R = H series) [µM] | LD50 i.m. mice ([2]; R = H column (also common oximes)) [mg/kg] | LD50 i.v. mice ([2]; R = H column (also common oximes), bispyridinium dibromides) [mg/kg] | IC50 ([1]; R = t-Bu series) [µM] | LD50 i.m. mice ([2]; R = t-Bu column)
1 | c1cc[n+](CCCCC[n+]2ccccc2)cc1 | 711 | 116 | 32 | – | –
2 | CC(C)(C)c1cc[n+](CCC[n+]2ccc(C(C)(C)C)cc2)cc1 | – | – | – | 404 | (167) ^c mg·kg^−1
